## Cyclic peptide permeability, from CycPeptMPDB

Collected by the curators of CycPeptMPDB (Li et al. 2023) from Comeau et al. 2021, doi:10.1021/acs.jmedchem.0c02036.

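The data file gives no further conditions (lipid, pH, time, direction or concentration), and values from different papers need not be comparable. Other peptides of the study may be missing here. Entries at the database's floor value (log10 P of -10) are not listed.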

PAMPA is the parallel artificial membrane permeability assay, which has no cells and reads passive diffusion.
Caco-2 values are permeabilities across monolayers of Caco-2 human intestinal cells.
P is given in units of 10^-6 cm/s (from log10 values with two decimals); larger means faster passage.

* CC(C)C[C@@H]1NC(=O)[C@H](C)NC(=O)[C@H](C)CCCNC(=O)[C@H](Cc2ccccc2)NC1=O: PAMPA 0.23 × 10^-6 cm/s; Caco-2 19 × 10^-6 cm/s
* CC(C)C[C@@H]1NC(=O)[C@H](C)NC(=O)CCC[C@@H](C)NC(=O)[C@H](Cc2ccccc2)NC1=O: PAMPA 0.089 × 10^-6 cm/s; Caco-2 9.1 × 10^-6 cm/s
* CC(C)C[C@@H]1NC(=O)CN(C)C(=O)[C@H](C)CCCNC(=O)[C@H](Cc2ccccc2)NC1=O: PAMPA 0.2 × 10^-6 cm/s; Caco-2 14 × 10^-6 cm/s
* CC(C)CN1CC(=O)N[C@@H](Cc2ccccc2)C(=O)NCCC[C@@H](C)C(=O)N[C@@H](C)C1=O: PAMPA 0.72 × 10^-6 cm/s; Caco-2 11 × 10^-6 cm/s
* CC(C)C[C@@H]1C(=O)N[C@@H](Cc2ccccc2)C(=O)NCCC[C@H](C)C(=O)N[C@@H](C)C(=O)N1C: PAMPA 1.8 × 10^-6 cm/s
* CC(C)C[C@@H]1NC(=O)CN(C)C(=O)C[C@@H](C)CCNC(=O)[C@H](Cc2ccccc2)NC1=O: PAMPA 0.12 × 10^-6 cm/s; Caco-2 7.1 × 10^-6 cm/s
* CC(C)CN1CC(=O)N[C@@H](Cc2ccccc2)C(=O)NCCCCC(=O)N[C@@H](C)C1=O: PAMPA 0.42 × 10^-6 cm/s; Caco-2 2.9 × 10^-6 cm/s
* CC(C)C[C@@H]1NC(=O)[C@H](C)NC(=O)CC[C@@H](C)CNC(=O)[C@H](Cc2ccccc2)NC1=O: PAMPA 0.054 × 10^-6 cm/s; Caco-2 9.3 × 10^-6 cm/s
* CC(C)CN1CC(=O)N[C@@H](Cc2ccccc2)C(=O)NCC[C@@H](C)CC(=O)N[C@@H](C)C1=O: PAMPA 1.4 × 10^-6 cm/s; Caco-2 35 × 10^-6 cm/s
* CC(C)C[C@@H]1NC(=O)CN(C)C(=O)CCCCNC(=O)[C@H](Cc2ccccc2)NC1=O: PAMPA 0.037 × 10^-6 cm/s; Caco-2 4.8 × 10^-6 cm/s
* CC(C)C[C@@H]1NC(=O)CN(C)C(=O)[C@@H](C)CCCNC(=O)[C@H](Cc2ccccc2)NC1=O: PAMPA 0.0046 × 10^-6 cm/s; Caco-2 2.6 × 10^-6 cm/s
* CC(C)C[C@@H]1NC(=O)[C@H](C)NC(=O)CCC[C@@H](C)NC(=O)CN(Cc2ccccc2)C1=O: PAMPA 0.15 × 10^-6 cm/s; Caco-2 10 × 10^-6 cm/s
* CC(C)C[C@@H]1NC(=O)[C@H](C)NC(=O)CCC[C@H](C)NC(=O)CN(Cc2ccccc2)C1=O: PAMPA 0.22 × 10^-6 cm/s; Caco-2 5.8 × 10^-6 cm/s

Extract of 2 entries:

* CC(C)C[C@@H]1NC(=O)[C@H](C)NC(=O)CCC[C@@H](C)NC(=O)CN(Cc2ccccc2)C1=O: PAMPA 0.15 × 10^-6 cm/s; Caco-2 10 × 10^-6 cm/s
* CC(C)CN1CC(=O)N[C@@H](Cc2ccccc2)C(=O)NCCC[C@@H](C)C(=O)N[C@@H](C)C1=O: PAMPA 0.72 × 10^-6 cm/s; Caco-2 11 × 10^-6 cm/s